Entries after “also recorded” stand apart in the source; their conditions may differ.
Test system: IL-6 plus IL-6sR stimulated aromatase activity
Experiment: IL-6 plus IL-6sR stimulated aromatase activity in breast fibroblasts
Type: cell-based, human
Description: The experimental protocol used was as described in the legend to FIG. 1.
Fibroblasts were cultured as previously described (2). Briefly, they were cultured in Eagles' modified minimal essential medium containing Hepes buffer (20 mmol/l), 10% foetal calf serum (FCS) and supplements. Cells were routinely passaged 2-3 times after which replicate 25 cm^2 flasks were seeded with fibroblasts and grown to confluency.
At the end of the treatment period aromatase activity was measured in intact monolayers using [1β-^3H] androstenedione (15-30 Ci/mmol, NEN-Du Pont, Stevenage, Herts, UK) over a 3-20 h period (2, 3). The number of cells was measured by counting cell nuclei using a Coulter counter. Experiments were carried out in triplicate and results shown are representative of 2-3 investigations.

With `COc1cc2c(cc1O)CC[C@@H]1[C@@H]2CC[C@]2(C)[C@@H](O)CC[C@@H]12` [2-meOE2, 2-methoxyoestradiol] the “inhibition of stimulation of aromatase activity by IL-6 plus its soluble receptor (in words)” value was “antagonise; also recorded: inhibited”.

— patent US20020055462A1, “Use” (priority 1999, published 2002)
